Measured values from PMC4390550 (Journal of the American Chemical Society, 2015).

Amino acid sequences for entries named in this document (tags omitted). Residues count along the entry.
UniProt P80147, 29-500: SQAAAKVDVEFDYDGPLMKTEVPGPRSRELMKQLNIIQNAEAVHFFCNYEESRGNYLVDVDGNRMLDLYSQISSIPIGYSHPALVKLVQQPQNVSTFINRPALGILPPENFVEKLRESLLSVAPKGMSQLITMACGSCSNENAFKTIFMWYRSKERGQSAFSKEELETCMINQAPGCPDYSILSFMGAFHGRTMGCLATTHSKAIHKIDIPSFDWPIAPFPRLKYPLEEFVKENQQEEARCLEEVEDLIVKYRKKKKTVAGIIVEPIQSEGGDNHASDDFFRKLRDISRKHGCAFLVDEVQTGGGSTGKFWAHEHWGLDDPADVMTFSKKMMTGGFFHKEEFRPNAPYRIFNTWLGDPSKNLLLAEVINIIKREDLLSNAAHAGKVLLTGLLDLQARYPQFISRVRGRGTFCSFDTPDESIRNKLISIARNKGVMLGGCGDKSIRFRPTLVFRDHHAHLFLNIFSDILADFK

Biological target: GABA-AT (Sus scrofa, UniProt P80147)
Experiment: Time-dependent inhibition
Format: biochemical, pig
Settings: pH 6.5, 25 °C

`Cl.N[C@@H]1CS[C@H](C(=O)O)C1` [Compound 17, (2S,4S)-4-Aminotetrahydrothiophene-2-carboxylic acid hydrochloride] was tested, and the “efficiency as inactivator of GABA-AT relative to vigabatrin (from kinact/KI)” value was “eight times more efficient”.
`Cl.N[C@@H]1CS[C@@H](C(=O)O)C1` [Compound 18, (2R,4S)-4-Aminotetrahydrothiophene-2-carboxylic acid hydrochloride] was tested, and the “efficiency as inactivator of GABA-AT relative to vigabatrin (from kinact/KI)” value was “half as efficient”.
